Results reported in ChEMBL document CHEMBL1938324, “Development of a more highly selective M(1) antagonist from the continued optimization of the MLPCN Probe ML012” (Bioorg Med Chem Lett, 2012).

What was measured:
Assay type in all cases: cell-based
CHO [1] = assay: Selectivity ratio of IC50 for human muscarinic M2 receptor expressed in CHO cells to IC50 for rat muscarinic M1 receptor expressed in CHO cells
CHO [2] = assay: Selectivity ratio of IC50 for human muscarinic M5 receptor expressed in CHO cells to IC50 for rat muscarinic M1 receptor expressed in CHO cells
CHO [3] = assay: Selectivity ratio of IC50 for rat muscarinic M4 receptor expressed in CHO cells co-transfected with Gqi5 to IC50 for rat muscarinic M1 receptor expressed in CHO cells
CHO [4] = assay: Selectivity ratio of IC50 for human muscarinic M3 receptor expressed in CHO cells to IC50 for rat muscarinic M1 receptor expressed in CHO cells

Measured: Ratio IC50

O=C(CCNS(=O)(=O)c1cccc2nsnc12)N1CCN(c2ccncc2)CC1
45: all assays above
